Screening data (PubChem BioAssay)
Only some compounds are listed: those with a hit (about 13% of all), similar ones and a draw of the others.
miR-21 reporter: raises the signal of a miR-21 reporter | HeLa miR-21 FLuc reporter, luciferase, 48 h | Potency, µM (highest dose often 38.3 µM), for inactives: at the highest dose reporter change, positive = more light | 340,000 tested, under 10 active | AID 2288; active = well fitted rising curve with a large enough effect; inconclusive = small, poorly fitted or top-dose-only effect; inactive = no such curve, though single readings can be large or run the other way;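 also: % of control where 0% means no effect; miR-21 action dims this reporter so a rising signal means less miR-21 action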
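Compounds were titrated across several concentrations (up to approximately 40 uM) and incubated 48 hours with HeLa miR-21-FLuc reporter cells (miR-21 target sequence downstream of FLuc, endogenous miR-21). Readout was firefly luciferase luminescence after lytic detection reagent.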
LMNA splice mod: changes lamin A minigene splicing in HeLa cells; Potency, µM (series often up to 46.1 µM), without a hit: at the top dose ratio change, negative = inhibition, most hits filed as inhibitors; 200,000 compounds, 0.01% hits; HeLa LMNA splicing GFP/RFP minigene ratio, 48 h; active means well fitted inhibition curve with a large enough effect in the signal ratio, with a control signal flat, not every such curve was filed as active; inconclusive means small, poorly fitted or top-dose-only effect, or effect the other way, or a change in a side signal; the % refers to the signal ratio; further: potency means the concentration at half of the fitted maximal effect; on the % scale 0 is the no-effect control and ±100 the full control effect
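Read-out is the ratio of GFP to DsRed2 object intensity, acquired by 488 nm laser-scanning cytometry on HeLa lamin A-EGFP minigene reporter cells. Compound incubation 48 hrs at 37 °C in Opti-MEM with 2% FBS; DMSO 0.5% final.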
JMJD2E inh: blocks human JMJD2E demethylase activity. B2RXH2. JMJD2E catalytic domain, FDH-coupled NADH fluorescence (FDH is formaldehyde dehydrogenase). Potency, µM (series often up to 57.1 µM), for inactives: at the highest dose activity change, negative = inhibition, usual class: inhibitors. 230,000 compounds, 1.6% hits; active means well fitted inhibition curve with a large enough effect, not every such curve was filed as active; inconclusive means small, poorly fitted or top-dose-only effect, or another doubt; inactive means no such curve, though single readings can be large or run the other way;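 further: potency means the concentration at half of the fitted maximal effect; 0% = wells with enzyme and -100% = buffer wells without enzyme; nearly all actives have a fitted effect of over 50% in size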
ALDH1A1 block: blocks purified human ALDH1A1 activity. P00352. Purified ALDH1A1, NADH fluorescence, propionaldehyde substrate. 220,000 compounds, 7.3% hits. AID 1030. Potency, µM (series often up to 75.3 µM), for the others: at the top dose activity, negative = inhibition, hits mostly inhibitors; active means well fitted inhibition curve with a large enough effect, not every such curve was filed as active; inconclusive means small, poorly fitted or top-dose-only effect, or another doubt; inactive means no such curve, though single readings can be large or run the other way;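 further: potency means the concentration at half of the fitted maximal effect; plate controls were no enzyme wells and a reference inhibitor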
Sfp inh: qHTS Assay for Inhibitors of Bacillus subtilis Sfp phosphopantetheinyl transferase (PPTase) | 4'-phosphopantetheinyl transferase ffp (Bacillus subtilis), Q9F4F7 | AID 1490, 2009 | actives 3.5% (n = 310,000) | Biochemical Sfp PPTase activity, qHTS | Potency, µM, for inactives: max response, negative = inhibition, most hits filed as inhibitors; active = well fitted inhibition curve with a large enough effect; inconclusive = small, poorly fitted or top-dose-only effect, or another doubt; inactive = no such curve, though single readings can be large or run the other way;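 also: the enzyme is Sfp with the accession as filed and its product quenches rhodamine fluorescence; potency is read from the fitted curve at half-maximal effect; 0% = enzyme reaction without inhibitor and -100% = no enzyme wells; top concentration of the series not given in the record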
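Step 1, compound plus 15 nM Sfp-PPTase, 15 min, room temperature. Step 2, add rhodamine-CoA (5 uM) and BHQ-2-YbbR (12.5 uM). Step 3, read 525/598 nm fluorescence at 0 and 30 min.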
G9a block: blocks human histone lysine methyltransferase G9a; Q96KQ7; G9a H3K9 monomethylation, AlphaScreen, 2 h; Potency, µM (titrated, usually from 102 µM), without a hit: at the highest dose activity, negative = inhibition, hits mostly inhibitors; 350,000 compounds, 8.8% hits; further: potency means the concentration at half of the fitted maximal effect; on the % scale 0 is the no-effect control and ±100 the full control effect; nearly all actives have a fitted effect of over 75% in size
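G9a (20 nM) was preincubated 15 min with compound, then reacted 2 h at room temperature with 500 nM biotin-H3K9 peptide and 20 µM SAM. Monomethyl-H3K9 detected by AlphaScreen using anti-H3K9me1 antibody.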
The depositor's hits bear a star; ? = inconclusive; . = not tested or not shown; [ ] = remark or other dose. Unless noted, the call rests on the fitted dose curve; in most records, active means well fitted curve in the direction sought with a large enough effect; inconclusive means small, poorly fitted or top-dose-only effect, or another doubt; inactive means no such curve, though single readings can be large; an effect the other way counts as inactive or inconclusive.

1	Cc1cccc2sc(N(CCN3CCOCC3)C(=O)CCS(=O)(=O)c3ccccc3)nc12
2	Cc1nc2ccccc2n1CCc1nc2c3ccccc3nc(SCc3ccccc3F)n2n1
3	Cc1nc2nc(NC(=O)c3ccc(C(C)(C)C)cc3)[nH]n2c(=O)c1Cl
4	COCCN1CCN(Cc2nc(Cc3ccc(OC)c(OC)c3)no2)CC1
5	COc1ccc(Cc2noc(CN3CCN(Cc4cccc(Cl)c4)CC3)n2)cc1OC
6	COc1ccc(Cc2noc(CN3CCCN(C4Cc5ccccc5C4)CC3)n2)cc1OC
7	CC(C)(C)OC(=O)NN1CC(=O)N2[C@@H](Cc3c([nH]c4ccccc34)C2(C)C)C1=O
8	Cc1cc(N2CCN(C)CC2)nc2ccc(NC(=S)NCCCN3CCN(C)CC3)cc12
9	CCN1CCN(c2cc(C)c3cc(NC(=S)NCCCOC)ccc3n2)CC1
10	CCCCN(CC)CCCNC(=S)Nc1ccc2nc(N3CCN(CC)CC3)cc(C)c2c1

assay / entry	1	2	3	4	5	6	7	8	9	10
LMNA splice mod	.	-2.3%[46 µM]	.	?	.	.	.	.	.	.
G9a block	50.1µM*	0.8%[59 µM]	?	-30.2%	.	39.8µM*	39.0%	?	?	50.1µM*
miR-21 reporter	.	-4.8%	9.9%	-1.1%	2.0%	-2.5%	2.0%	-1.2%	-1.5%	-16.3%
ALDH1A1 block	.	.	.	0.5%	8.91µM*	10.2%	.	12.4%	.	?
JMJD2E inh	.	.	.	-13.3%	-0.6%	-5.7%	.	?	.	?
Sfp inh	.	.	.	11.7%	-5.3%	0.3%	4.3%	10.4%	14.7%	6.5%

11	CCCCN(CC)CCCNC(=S)Nc1ccc2nc(N3CCN(C)CC3)cc(C)c2c1
12	CCc1ccc(/C=N/n2c(COc3ccccc3)n[nH]c2=S)cc1
13	CCN(CC)c1ccc(/C=N/N2C(=O)c3ccccc3C2=O)cc1
14	CCc1n[nH]c(=S)n1/N=C/c1ccc(N(CC)CC)cc1
15	S=c1[nH]nc(COc2ccccc2)n1/N=C/c1ccncc1
16	Cc1cccc(/C=N/n2c(COc3ccccc3)n[nH]c2=S)c1
17	CCN(CC)c1ccc(/C=N/n2c(C)cc(C)cc2=O)cc1
18	Cc1ccc(C)c(CN2C(=O)c3ccccc3S(=O)(=O)c3ccc(C(=O)N4CCN(c5ccccc5F)CC4)cc32)c1
19	CCN(CC)C(=O)Cn1nc(-c2ccc(Cl)cc2)c2ccccc2c1=O
20	COc1cccc(C(=O)Oc2c(Sc3ccc(C)cc3)c(C)nn2C(C)(C)C)c1OC

assay / entry	11	12	13	14	15	16	17	18	19	20
LMNA splice mod	.	.	3.3%	.	-7.9%[46 µM]	.	3.6%	.	.	.
G9a block	39.8µM*	20µM*	-16.6%[59 µM]	1.78µM*	?	3.16µM*	22.6%	-5.1%[59 µM]	1.6%	56.4%[59 µM]
miR-21 reporter	-14.1%	-2.0%	-1.7%	0.8%	-4.4%	-4.7%	-0.2%	4.3%	-10.4%	?
ALDH1A1 block	-3.2%	.	?	10µM*	-10.0%	.	7.94µM*	.	.	.
JMJD2E inh	?	.	-5.6%	?	-23.2%	.	?	.	.	.
Sfp inh	3.8%	-29.9%	-10.6%	-33.2%	10.8%	56.2µM*	7.9%	.	-3.9%	.

21	CCOC(=O)c1c(C)c(-c2ccccc2)n(CC(=O)NCCc2ccc(C)cc2)c1C
22	COc1ccc(S(=O)(=O)N2CCCC(C(=O)NCCC(C)C)C2)cc1 (stereo unspecified)
23	O=[N+]([O-])c1ccc(Cl)c(/C=N/n2c(COc3ccccc3)n[nH]c2=S)c1
24	CCN(CC)c1ccc(/C=N/N2CC(=O)NC2=S)cc1
25	CCN(CC)c1ccc(/C=N/O)cc1
26	O=[N+]([O-])c1ccc(Cl)c(/C=N/n2c(C3CCCCC3)n[nH]c2=S)c1
27	S=c1[nH]nc(COc2ccccc2)n1/N=C/c1ccc(Cl)c(Cl)c1
28	COc1ccc(-c2nc3sc(CCNS(=O)(=O)c4c(C)cc(C)cc4C)c(C)n3n2)cc1
29	S=c1[nH]nc(-c2cc(-c3ccccc3)n[nH]2)n1/N=C/c1cccs1
30	Cc1cccc(-c2n[nH]c(=S)n2/N=C/c2ccc(C)s2)c1

assay / entry	21	22	23	24	25	26	27	28	29	30
LMNA splice mod	.	4.6%[9.22 µM]	1.5%	.	2.4%[46 µM]	7.2%	.	-14.2%[46 µM]	.	1.4%
G9a block	-5.3%[59 µM]	-23.1%	8.91µM*	7.94µM*	?	?	12.6µM*	-5.7%[59 µM]	1.58µM*	1.12µM*
miR-21 reporter	-2.4%	6.1%	-1.2%	.	-36.0%	-0.4%	-6.2%	19.2%	-10.9%	-0.1%
ALDH1A1 block	.	-1.1%	14.1µM*	.	?	?	.	.	10.3%	-1.2%
JMJD2E inh	.	0.8%	-8.6%	.	?	-0.9%	.	.	-15.5%	1.8%
Sfp inh	.	-5.0%	?	.	17.8%	7.3%	56.2µM*	.	3.6%	?

2 records drawn at random from the list so far, as already listed:
13	CCN(CC)c1ccc(/C=N/N2C(=O)c3ccccc3C2=O)cc1
4	COCCN1CCN(Cc2nc(Cc3ccc(OC)c(OC)c3)no2)CC1

assay / entry	13	4
LMNA splice mod	3.3%	?
G9a block	-16.6%[59 µM]	-30.2%
miR-21 reporter	-1.7%	-1.1%
ALDH1A1 block	?	0.5%
JMJD2E inh	-5.6%	-13.3%
Sfp inh	-10.6%	11.7%

Further compounds follow.
31	Cc1nnc(C)n1/N=C/c1cccs1
32	Cc1cccc(-c2n[nH]c(=S)n2/N=C/c2cccs2)c1
33	Cc1ccc(/C=N/n2c(-c3ccncc3)n[nH]c2=S)s1
34	CCCc1cc(=O)[nH]c(SCC(=O)Nc2cc(S(=O)(=O)N3CCCCC3)ccc2C)n1
35	COc1cccc(NC(=O)CSc2nc(O)c(C)c(=O)n2-c2ccc(C)cc2)c1
36	COc1ccccc1[C@]1(C)ON(c2ccccc2C(F)(F)F)C1=O
37	S=C(c1ccc(-c2cc(Cl)ccc2Cl)o1)N1CCCCC1
38	S=C(c1ccc(-c2cc(Cl)ccc2Cl)o1)N1CCOCC1
39	O=C(Nc1ccc(CN2CCOCC2)cc1)c1ccc(-c2cc(Cl)ccc2Cl)o1
40	CCOCCCNC(=O)CN1C(=O)NC(Cc2c[nH]c3ccccc23)C1=O (stereo unspecified)

assay / entry	31	32	33	34	35	36	37	38	39	40
LMNA splice mod	6.6%	.	.	.	.	.	?	2.2%	?	.
G9a block	-37.1%[0.0925 µM]	0.708µM*	.	-7.9%[12.7 µM]	-3.3%	4.5%[0.501 µM]	?	8.91µM*	-12.6%[59 µM]	20.9%[2.33 µM]
miR-21 reporter	-3.5%	-5.7%	-0.9%	.	-2.0%	.	-11.7%	-13.1%	2.2%	-1.9%
ALDH1A1 block	7.0%	.	.	.	.	.	2.8%	22.4µM*	?	.
JMJD2E inh	1.7%	-9.5%	-17.2%	.	.	.	4.4%	-2.4%	?	.
Sfp inh	-3.2%	?	63.1µM*	.	5.4%	.	15.8µM*	25.1µM*	2.9%	16.5%

41	Cc1ccc(C)c(NC(=O)CN2C(=O)C3(SCC(=O)N3c3ccc(C)c(C)c3)c3ccccc32)c1 (stereo unspecified)
42	COCCn1c(C)cc(C(=O)COc2cccnc2[N+](=O)[O-])c1C
43	Cc1cc(C)c(C(=O)COc2cccnc2[N+](=O)[O-])cc1C
44	N#Cc1cccnc1N1CCC(C(N)=O)CC1
45	CC(=O)c1ccc(NC(=O)CSc2ccc(-c3ccc(-n4cccn4)cc3)nn2)cc1
46	CCC(CC)NC(=O)/C=C/c1ccccc1Cl
47	Cc1cc(C(=O)NNC(=S)NC(=O)/C=C/c2ccccc2Cl)n[nH]1
48	Cc1ccccc1C(=O)NNC(=S)NC(=O)c1ccc(Cl)cc1Cl
49	Cc1cccc(C(=O)NC(=S)NNC(=O)c2ccccc2Cl)c1
50	O=C(Cc1ccccc1)NNC(=S)NC(=O)c1cccs1

assay / entry	41	42	43	44	45	46	47	48	49	50
LMNA splice mod	-12.3%[46 µM]	1.9%[46 µM]	-5.5%	.	.	?	4.4%	-24.8%	?	.
G9a block	-22.4%[59 µM]	?	7.08µM*	.	-9.1%	-6.6%[59 µM]	28.2µM*	?	7.94µM*	.
miR-21 reporter	14.4%	0.2%	18.9%	3.3%	.	-54.0%	-30.2%	-6.3%	-24.1%	-1.8%
ALDH1A1 block	.	5.62µM*	1.58µM*	.	.	-6.5%	?	-9.1%	22.4µM*	.
JMJD2E inh	.	3.3%	-14.1%	?	.	5.3%	7.94µM*	?	?	?
Sfp inh	.	-70.8%	56.2µM*	3.7%	.	5.7%	6.6%	6.2%	-18.7%	11.9%
